# Screening results: PubChem, National Center for Advancing Translational Sciences (NCATS)
# Rows were chosen to be rich in hits. Some 13% of all compounds tested hit in one or more screens of this group.
# LMNA splice mod – modulators of lamin A splicing; HeLa LMNA splicing GFP/RFP minigene ratio, 48 h; Potency, µM (highest dose often 46.1 µM), for the others: at the top dose ratio change, negative = inhibition, usual class: inhibitors; actives 0.01% (n = 200,000); active = well fitted inhibition curve with a large enough effect in the signal ratio, with a control signal flat, not every such curve was filed as active; inconclusive = small, poorly fitted or top-dose-only effect, or effect the other way, or a change in a side signal; the % refers to the signal ratio; also: potency is read from the fitted curve at half-maximal effect; % is scaled to controls: 0 for no effect and ±100 for the full control effect
#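 S3 HeLa stable clones carrying a lamin A-EGFP splicing minigene plus DsRed2 were seeded at 600 cells/well in Opti-MEM with 2% FBS, pin-dosed and incubated 48 h at 37°C. Acumen cytometry (488 nm) gave the GFP/RFP total-intensity ratio.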
# miR-21 FLuc – raises the signal of a miR-21 reporter; HeLa miR-21 FLuc reporter, luciferase, 48 h; Potency, µM (top dose mostly 38.3 µM), for inactives: at the highest dose reporter change, positive = more light; AID 2288; 340,000 tested, under 10 active; active = well fitted rising curve with a large enough effect; inconclusive = small, poorly fitted or top-dose-only effect; inactive = no such curve, though single readings can be large or run the other way;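 note: % of control where 0% means no effect; miR-21 action dims this reporter so a rising signal means less miR-21 action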
#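 Luminescence from a firefly luciferase reporter carrying a miR-21 binding site downstream, stably expressed under a CMV promoter in HeLa cells that make miR-21 endogenously, reports miRNA modulation after 48 h compound exposure up to approximately 40uM final.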
# JMJD2E inh – inhibitors of human JMJD2E histone demethylase | B2RXH2 | JMJD2E catalytic domain, FDH-coupled NADH fluorescence (FDH is formaldehyde dehydrogenase) | Potency, µM (series often up to 57.1 µM), inactives show at the top dose activity change, negative = inhibition, most hits filed as inhibitors | actives 1.6% (n = 230,000) | AID 2147; active = well fitted inhibition curve with a large enough effect, not every such curve was filed as active; inconclusive = small, poorly fitted or top-dose-only effect, or another doubt; inactive = no such curve, though single readings can be large or run the other way;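 also: potency is read from the fitted curve at half-maximal effect; 0% = wells with enzyme and -100% = buffer wells without enzyme; nearly all actives have a fitted effect of over 50% in size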
# ALDH1A1 block – blocks purified human ALDH1A1 activity; actives 7.3% (n = 220,000); Potency, µM (highest dose often 75.3 µM), for inactives: at the highest dose activity, negative = inhibition, most hits filed as inhibitors; AID 1030; P00352; Purified ALDH1A1, NADH fluorescence, propionaldehyde substrate; active = well fitted inhibition curve with a large enough effect, not every such curve was filed as active; inconclusive = small, poorly fitted or top-dose-only effect, or another doubt; inactive = no such curve, though single readings can be large or run the other way;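 also: potency is read from the fitted curve at half-maximal effect; plate controls were no enzyme wells and a reference inhibitor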
# G9a block – G9a (human) methyltransferase inhibition. Q96KQ7. G9a H3K9 monomethylation, AlphaScreen, 2 h. actives 8.8% (n = 350,000). Potency, µM (titrated, usually from 102 µM), for the others: at the top dose activity, negative = inhibition, usual class: inhibitors. AID 504332; also: potency is read from the fitted curve at half-maximal effect; % is scaled to controls: 0 for no effect and ±100 for the full control effect; nearly all actives have a fitted effect of over 75% in size
#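 Chemiluminescent proximity detection of H3K9 monomethylation, read after 10 min bead incubation in the dark. Reaction: 20 nM G9a, 500 nM biotin-H3K9 peptide, 20 uM SAM cofactor, 2 h, room temperature, following 15 min enzyme-compound preincubation.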
# Sfp inh – qHTS Assay for Inhibitors of Bacillus subtilis Sfp phosphopantetheinyl transferase (PPTase); Biochemical Sfp PPTase activity, qHTS; Potency, µM, for inactives: max response, negative = inhibition, actives largely listed as inhibitors; actives 3.5% (n = 310,000); AID 1490, 2009; active = well fitted inhibition curve with a large enough effect; inconclusive = small, poorly fitted or top-dose-only effect, or another doubt; inactive = no such curve, though single readings can be large or run the other way;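 note: the enzyme is Sfp with the accession as filed and its product quenches rhodamine fluorescence; potency is the fitted concentration of half-maximal effect; 0% = enzyme reaction without inhibitor and -100% = no enzyme wells; top concentration of the series not given in the record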
#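 Reaction rates are the 30-min fluorescence difference (ex 525, em 598 nm) in wells containing 15 nM Sfp, 5 uM rhodamine-CoA and 12.5 uM BHQ-2-YbbR at pH 7.6 with 10 mM MgCl2.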
# * marks the source's active call; other numbers are inactive results; ? = inconclusive; nt = not tested or not shown; ! = repeats disagree; [ ] = remark or other dose. Unless noted, calls follow the shape of the dose curve; as a rule, active = well fitted curve in the direction sought with a large enough effect; inconclusive = small, poorly fitted or top-dose-only effect, or another doubt; inactive = no such curve, though single readings can be large; an effect the other way counts as inactive or inconclusive.
# Key to letters: A = LMNA splice mod; B = miR-21 FLuc; C = JMJD2E inh; D = ALDH1A1 block; E = G9a block; F = Sfp inh
CCOP(=O)(C1=C(O)C(=O)C(C(C)(C)C)=CC1=O)c1ccccc1 (stereo unspecified)
  A: nt; B: 6%; C: -8%; D: ?; E: 56µM*; F: 40µM*

CCOP(=O)(OCC)C(O)c1ccccc1 (stereo unspecified)
  A: nt; B: 0%; C: -3%; D: nt; E: 5%[59 µM]; F: 7%

CCCCCCCCCCCCCC(=O)O[C@@H]1[C@@H](C)[C@@]2(O)[C@H](C=C(CO)C[C@]3(O)C(=O)C(C)=C[C@@H]23)[C@@H]2C(C)(C)C12OC(C)=O (stereo partly specified)
  A: nt; B: nt; C: nt; D: -2%; E: 9%[59 µM]; F: 7%

NC(CP(=O)(O)O)C(=O)O (stereo unspecified)
  A: ?; B: nt; C: -10%; D: 5%; E: 27µM*!; F: ?

NC(CCCP(=O)(O)O)C(=O)O (stereo unspecified)
  A: ?; B: nt; C: 6%; D: -2%; E: 0%[59 µM]; F: nt

NC(CCCCCP(=O)(O)O)C(=O)O (stereo unspecified)
  A: -15%; B: nt; C: -2%; D: 6%; E: 6µM*; F: nt

CN(C)CCCNc1c2c(nc3ccc(Cl)cc13)CCCC2
  A: nt; B: nt; C: nt; D: 6%[13.5 µM]; E: nt; F: nt

CN(C)CC1CSCCC1(O)c1ccccc1 (stereo unspecified)
  A: -2%; B: -4%; C: 8%; D: 13µM*; E: -10%[59 µM]; F: 16%

O=C(O)c1ccccc1NS(=O)(=O)c1cccc(N=Nc2c(O)[nH]c(=S)[nH]c2=O)c1
  A: nt; B: nt; C: nt; D: nt; E: 50µM*; F: nt

O=C(O)c1cc(S(=O)(=O)Nc2ccccc2C(=O)O)ccc1O
  A: 2%; B: -1%; C: ?; D: -5%; E: nt; F: -7%

# Other records:
# Key to letters: A = LMNA splice mod; B = miR-21 FLuc; C = JMJD2E inh; D = ALDH1A1 block; E = G9a block; F = Sfp inh
CC(C)N(CC[C@@](C(N)=O)(c1ccccc1)c1ccccn1)C(C)C
  A: -11%; B: nt; C: -1%[25.5 µM]; D: 17%[20.9 µM]; E: -2%[12.7 µM]; F: 11%

CCOc1cncc(/C=C/CCNC)c1
  A: nt; B: nt; C: nt; D: nt; E: nt; F: -10%

OCCBr
  A: nt; B: nt; C: nt; D: 5%; E: nt; F: nt

BrCC(Br)(Br)Br
  A: nt; B: nt; C: nt; D: 2µM*; E: -21%[0.501 µM]; F: nt

CC(C)CCNC(=O)CNC(=O)[C@@H](C)NC(=O)[C@@H](N)Cc1ccc(O)cc1
  A: nt; B: nt; C: nt; D: nt; E: nt; F: 2%

COc1ccc(CCNc2nccn(-c3ccc(C)c(C)c3)c2=O)cc1OC
  A: nt; B: 2%; C: nt; D: nt; E: ?; F: nt

COc1ccc(Cc2nccc3cc(OC)c(OC)cc23)cc1OC
  A: ?; B: 11%; C: ?; D: -2%; E: 5.6µM*!; F: -9%

O[N+]1=CC=CCC1=S.On1ccccc1=S.[Zn]
  A: nt; B: nt; C: 2.5µM*; D: 2.8µM*; E: ?; F: -100%

Cn1c(O)c(C=Nc2ccccc2)c(=O)n(C)c1=O
  A: nt; B: -2%; C: nt; D: nt; E: 2%; F: 8%

CN1CCN(/N=C/c2c(O)n(C)c(=O)n(C)c2=O)CC1
  A: nt; B: -2%; C: -1%; D: -3%; E: 28µM*; F: -12%

# New compounds follow:
# Key to letters: A = LMNA splice mod; B = miR-21 FLuc; C = JMJD2E inh; D = ALDH1A1 block; E = G9a block; F = Sfp inh
C/C(=N\Nc1ccccc1)c1c(O)n(C)c(=O)n(C)c1=O
  A: -11%; B: 9%; C: ?; D: 25µM*; E: ?; F: ?

Cn1c(O)c(C(=O)c2ccccc2F)c(=O)n(C)c1=O
  A: 0%; B: -3%; C: -1%; D: -7%; E: 11µM*; F: ?

Cn1c(O)c(/C=N/Nc2ccccc2)c(=O)n(C)c1=O
  A: -10%[9.22 µM]; B: 6%; C: 4%; D: 10µM*; E: 4µM*; F: 56µM*

CCCCC[C@@H](/C=C/C=C\CCCCCCCCCC(=O)O)OO
  A: nt; B: nt; C: 6%; D: 0%; E: nt; F: 2%

O=C(C[C@H](c1ccccc1)c1c(O)c2ccccc2oc1=O)c1ccccc1
  A: nt; B: nt; C: nt; D: 2%[13.5 µM]; E: nt; F: nt

CC1(C)[C@H](C(=O)O[C@H](C#N)c2cccc(Oc3ccccc3)c2)[C@@H]1C=C(Br)Br
  A: nt; B: nt; C: nt; D: nt; E: nt; F: -23%

CCOc1cc2c(cc1OCC)-n1cccc1C(c1ccccc1O)NC2 (stereo unspecified)
  A: nt; B: -5%; C: nt; D: nt; E: 50µM*; F: ?

CCOc1cc2c(cc1OCC)-n1cccc1C(c1cccc(F)c1F)NC2 (stereo unspecified)
  A: nt; B: 4%; C: nt; D: nt; E: 45µM*; F: -13%

Cc1nnc(SCc2nc3ccccc3c(=O)n2-c2ccccc2Cl)n1N
  A: 8%; B: -3%; C: -10%; D: 25µM*; E: 20%[59 µM]; F: 3%

NC(=O)CNC(=O)[C@H](Cc1ccccc1)NC(=O)[C@H](CCCN=C(N)N)NC(=O)[C@@H](N)Cc1ccc(O)cc1
  A: nt; B: nt; C: nt; D: 5%; E: 37%[59 µM]; F: 19%

# Next section.
# Key to letters: A = LMNA splice mod; B = miR-21 FLuc; C = JMJD2E inh; D = ALDH1A1 block; E = G9a block; F = Sfp inh
CC(=O)N1CCN(c2ccc(OC[C@@H]3CO[C@@](Cn4ccnc4)(c4ccc(Cl)cc4Cl)O3)cc2)CC1
  A: ?; B: nt; C: 5%[25.5 µM]; D: -8%[20.9 µM]; E: ?; F: 13%

CC(=O)N1CCN(c2ccc(OC[C@H]3CO[C@](Cn4ccnc4)(c4ccc(Cl)cc4Cl)O3)cc2)CC1
  A: ?; B: ?; C: 3%; D: ?; E: 10µM*; F: -22%

COP(=S)(OC)SCn1nnc2ccccc2c1=O
  A: ?; B: nt; C: ?; D: 13µM*; E: nt; F: 22µM*

CC/C=C\C[C@@H](/C=C/C=C\C/C=C\C/C=C\CCCC(=O)O)OO
  A: nt; B: nt; C: -2%; D: -2%; E: nt; F: -5%

C=CCc1cc(OC)c2c(c1OC)OCO2
  A: -6%; B: nt; C: 2%; D: -4%; E: nt; F: 8%

COc1ccc(CN2CCN(C(=O)COc3ccc4ccccc4c3)CC2)c(OC)c1
  A: nt; B: 10%; C: nt; D: nt; E: 11µM*; F: ?

CCC(C)N1CCN(C(=O)COc2ccc3ccccc3c2)CC1 (stereo unspecified)
  A: nt; B: -7%; C: nt; D: nt; E: 1.8µM*; F: -20%

CN1CCN(C(=O)COc2ccc(Oc3ccccc3)cc2)CC1
  A: nt; B: -1%; C: -10%; D: -3%; E: ?; F: -2%

COc1cccc(OCC(=O)N2CCN(C)CC2)c1
  A: 5%; B: -8%; C: -6%; D: -1%; E: 1%[59 µM]; F: -8%

CC/C=C\C/C=C\C/C=C\C/C=C\C/C=C\CCCC(=O)NCCCC(=O)O
  A: nt; B: nt; C: -6%; D: -15%; E: nt; F: 18%

# Later entries.
# Key to letters: A = LMNA splice mod; B = miR-21 FLuc; C = JMJD2E inh; D = ALDH1A1 block; E = G9a block; F = Sfp inh
O=C(O)[C@@H](O)[C@@H](O)C1[O][Sb][O][C@@H]1CO (stereo partly specified)
  A: nt; B: nt; C: nt; D: -19%[13.5 µM]; E: nt; F: nt

Cc1ncc(CN2CC=C(c3ccccc3)CC2)c(N)n1
  A: nt; B: nt; C: -27%; D: ?; E: nt; F: -18%

CC(C)C[C@H]1C(=O)N2CCC[C@H]2[C@]2(O)O[C@](NC(=O)[C@@H]3C=C4c5cccc6[nH]c(Br)c(c56)C[C@H]4N(C)C3)(C(C)C)C(=O)N12
  A: nt; B: nt; C: nt; D: -1%; E: 24µM*; F: -4%

CC(C)C[C@H]1C(=O)N2CCC[C@H]2[C@]2(O)O[C@](NC(=O)[C@@H]3C=C4c5cccc6[nH]cc(c56)C[C@H]4N(C)C3)(C(C)C)C(=O)N12
  A: nt; B: nt; C: nt; D: nt; E: 6.3µM*; F: nt

CN1C[C@H](C(=O)N[C@]2(C)O[C@@]3(O)[C@@H]4CCCN4C(=O)[C@H](Cc4ccccc4)N3C2=O)C=C2c3cccc4[nH]cc(c34)C[C@H]21
  A: ?; B: nt; C: nt; D: ?; E: 13µM*; F: -17%

CN1C[C@H](C(=O)N[C@@]2(C)O[C@@]3(O)[C@H]4CCCN4C(=O)[C@@H](Cc4ccccc4)N3C2=O)C=C2c3cccc4[nH]cc(c34)C[C@@H]21
  A: nt; B: nt; C: nt; D: -13%[13.5 µM]; E: nt; F: nt

COc1ccc(S(=O)(=O)Nc2cc([N+](=O)[O-])ccc2OC)cc1
  A: ?; B: 14%; C: -9%; D: ?; E: -9%[59 µM]; F: 10%

Oc1cc2c(cc1CN1CCN(c3ccccc3F)CC1)OCO2
  A: nt; B: -8%; C: nt; D: nt; E: 8.9µM*; F: 5%

# Ordered by number of heavy atoms (low to high): part of the list above
# Key to letters: A = LMNA splice mod; B = miR-21 FLuc; C = JMJD2E inh; D = ALDH1A1 block; E = G9a block; F = Sfp inh
O=C(O)[C@@H](O)[C@@H](O)C1[O][Sb][O][C@@H]1CO (stereo partly specified)
  A: nt; B: nt; C: nt; D: -19%[13.5 µM]; E: nt; F: nt

COc1ccc(S(=O)(=O)Nc2cc([N+](=O)[O-])ccc2OC)cc1
  A: ?; B: 14%; C: -9%; D: ?; E: -9%[59 µM]; F: 10%

CN1C[C@H](C(=O)N[C@@]2(C)O[C@@]3(O)[C@H]4CCCN4C(=O)[C@@H](Cc4ccccc4)N3C2=O)C=C2c3cccc4[nH]cc(c34)C[C@@H]21
  A: nt; B: nt; C: nt; D: -13%[13.5 µM]; E: nt; F: nt
